SMILES strings stand for the structures. This is a selection; strong and weak results do not stand in their true shares. Activity calls are given as the source filed them.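 The calls were made as follows: active = activity remaining at or below 50% of control, provided the compound also passes the data quality filters; inactive = the rest, including low values that fail the filters.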

By UniProt entry, the sequences of proteins in these tests, tags left out.
UniProt Q92560, whole entry: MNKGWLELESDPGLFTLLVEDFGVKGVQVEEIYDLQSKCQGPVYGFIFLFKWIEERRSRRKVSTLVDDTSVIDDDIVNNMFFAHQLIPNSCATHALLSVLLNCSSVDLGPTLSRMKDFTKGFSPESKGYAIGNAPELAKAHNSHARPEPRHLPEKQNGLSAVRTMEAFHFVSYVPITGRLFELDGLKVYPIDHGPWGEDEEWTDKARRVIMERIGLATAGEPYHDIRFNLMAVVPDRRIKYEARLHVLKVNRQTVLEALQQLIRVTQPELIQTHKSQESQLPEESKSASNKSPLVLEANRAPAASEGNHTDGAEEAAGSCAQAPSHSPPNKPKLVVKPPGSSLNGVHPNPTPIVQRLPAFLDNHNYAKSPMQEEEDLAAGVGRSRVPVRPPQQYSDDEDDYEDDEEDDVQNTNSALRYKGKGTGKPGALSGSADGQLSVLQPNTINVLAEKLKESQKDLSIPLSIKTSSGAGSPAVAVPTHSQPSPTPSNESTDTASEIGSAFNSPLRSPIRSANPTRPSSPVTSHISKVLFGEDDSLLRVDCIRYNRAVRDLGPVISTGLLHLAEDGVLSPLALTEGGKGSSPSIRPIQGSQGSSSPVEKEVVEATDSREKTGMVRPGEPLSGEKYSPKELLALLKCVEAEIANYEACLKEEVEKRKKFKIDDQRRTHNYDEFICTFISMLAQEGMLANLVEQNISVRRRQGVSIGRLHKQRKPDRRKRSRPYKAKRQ

For this experiment, the target named is Ubiquitin carboxyl-terminal hydrolase BAP1 (Homo sapiens) (UniProt Q92560). The experiment is described as follows: BAP1 ubiquitin hydrolase activity blockers – biochemical, Ub-AMC fluorescence, kinetic, primary screen (AID 436).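 Also: 100% = DMSO wells rate and 0% = substrate alone blank rate.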 The conditions noted are these: recombinant BAP1, Ub-AMC hydrolysis fluorescence kinetic; at 20 µM; stronger effect = lower value.
For `Cc1ccc(C)c(NP(C)(=O)Oc2ccccc2)c1` (centres undefined), the activity remaining (% of control) was inactive: 98%.
The same measure for `Cc1nc2ccc3ccccc3c2s1.O=[N+]([O-])c1cc([N+](=O)[O-])c(O)c([N+](=O)[O-])c1`: inactive: 113%; for `CCOP(C)(=S)SCC(=O)NC(C)C(=O)O` (centres undefined): inactive: 102%.
The same measure for `CP(=S)(Nn1cnnc1)Oc1ccccc1` (centres undefined): inactive: 99.8%.
The figure for `Cc1ccc(NP(C)(=O)Oc2ccccc2)c(C)c1` (centres undefined) is inactive: 85%; for `COc1ccccc1OP(C)(=O)Nc1ccc(C)cc1` (centres undefined) it is inactive: 78%.
Take `CP(=O)(Nc1ccccn1)Oc1ccccc1` (centres undefined): the activity remaining (% of control) was inactive: 110%.
The figure for `Cn1cc([N+](=O)[O-])nc1[N+](=O)[O-]` is inactive: 129%; for `COc1ccccc1OP(C)(=O)Nc1ccc(C)c(C)c1` (centres undefined) it is inactive: 107%; for `Cc1nc2ccc3ccccc3c2o1.O=[N+]([O-])c1cc([N+](=O)[O-])c(O)c([N+](=O)[O-])c1` it is inactive: 75.3%.
The same measure for `N#[O+].[C-]#N.[C-]#N.[C-]#N.[C-]#N.[C-]#N.[Fe+2].[Na+].[Na+]`: inactive: 94%; for `CCN(CC)CC(O)COC(=O)C(O)(c1ccccc1)C1CCCCC1` (centres undefined): inactive: 160%; for `CP(=O)(Oc1ccccc1)N1CCOC1=O` (centres undefined): inactive: 104%.
As to `COc1ccccc1OP(C)(=O)Nc1c(C)n(C)n(-c2ccccc2)c1=O` (centres undefined), the activity remaining (% of control) is inactive: 102%.
The figure for `CCOP(C)(=S)SCC(=O)NC(C)(CC)C(=O)O` (centres undefined) is inactive: 95.2%; for `CP(=O)(Nc1ccc2c(c1)OCCO2)Oc1ccccc1` (centres undefined) it is inactive: 98.2%.
The same measure for `Cc1ccccc1NP(C)(=O)Nc1ccccc1C`: inactive: 101%; for `CN(C)CCOC(=O)C(O)(c1ccccc1)C1CCCCC1` (centres undefined): inactive: 106%.
The figure for `CP(=O)(Nc1ccccc1F)Oc1ccccc1` (centres undefined) is inactive: 113%.

Source of the values: PubChem BioAssay AID436 (Emory University Molecular Libraries Screening Center, 2006).
